What was measured:
[1] = system: 76N-PfCRT^K1; assay: [3H]drug transport into Xenopus oocytes expressing PfCRT; type: cell-based, Plasmodium falciparum; conditions: pH 5.0, 1 μM unlabeled drug (S4 Fig)
Procedure: (§1) For each treatment, 10 oocytes were transferred to a 5 mL polystyrene round bottom tube (Falcon) and washed twice with 3.5 mL of ND96 buffer, with the residual buffer removed by pipette. […] The assay was terminated by removing the reaction buffer with a pipette and washing the oocytes twice with 3.5 mL of ice-cold ND96 buffer. Each oocyte was transferred to a separate well of a white 96-well plate (NUNC or PerkinElmer), incubated overnight at room temperature in 30 μL of 10% SDS, and mixed on an orbital shaker the following day for approximately 5 min. The lysed oocyte was then combined with 150 μL of MicroScint-40 microscintillant (PerkinElmer), the plate covered with a TopSeal-A (PerkinElmer), and the radioactivity measured with a PerkinElmer MicroBeta^2 microplate liquid scintillation analyzer.
(§2) Note that noninjected oocytes and oocytes expressing PfCRT^3D7 take up [^3H]CQ to similar (low) levels via simple diffusion of the neutral species of the drug; this represents the ‘background’ level of [^3H]CQ accumulation in oocytes (refer to Martin et al. for full data and discussion).

Chains of the proteins cited; added tags and fusions are not shown.
UniProt Q9N623, whole entry A220S/K76I/M74I/N326S/N75E/Q271E/R371I: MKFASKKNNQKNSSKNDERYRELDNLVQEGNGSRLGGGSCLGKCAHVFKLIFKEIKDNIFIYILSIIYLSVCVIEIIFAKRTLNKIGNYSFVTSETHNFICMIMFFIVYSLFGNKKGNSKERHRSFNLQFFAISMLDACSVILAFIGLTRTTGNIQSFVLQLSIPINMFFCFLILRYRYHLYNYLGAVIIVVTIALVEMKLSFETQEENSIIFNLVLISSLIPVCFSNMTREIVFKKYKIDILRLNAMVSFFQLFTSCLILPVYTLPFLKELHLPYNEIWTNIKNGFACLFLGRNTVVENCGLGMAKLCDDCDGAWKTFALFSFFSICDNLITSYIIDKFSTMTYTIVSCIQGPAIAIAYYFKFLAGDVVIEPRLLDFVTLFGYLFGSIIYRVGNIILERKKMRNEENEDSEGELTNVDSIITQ

[2] = system: PfCRT^K1; assay: as above; type: cell-based, Plasmodium falciparum; conditions: for rate of uptake mediated by PfCRT^K1 relative to PfCRT^Dd2: pH 5.0, 1 μM unlabeled drug (S4 Fig)
Procedure: as §1, §2

[3] = system: P. falciparum line 106/1^76I,352K; conditions: 106/1^76I,352K (76I,352K-PfCRT^K1); IC50 in line divided by IC50 in drug-sensitive reference strain; cited from earlier work
[4] = system: P. falciparum line 106/1^76I; conditions: 106/1^76I (76I-PfCRT^K1); IC50 in line divided by IC50 in drug-sensitive reference strain; cited from earlier work
[5] = biological target: 76I-PfCRT^K1 (Plasmodium falciparum, UniProt Q9N623, A220S/K76I/M74I/N326S/N75E/Q271E/R371I); type: cell-based; conditions: for rate of transport via 76I-PfCRT^K1 relative to 76I-PfCRT^Dd2: pH 5.0, 1 μM unlabeled drug (S4 Fig)
[6] = system: P. falciparum line 106/1^72R,76I; conditions: 106/1^72R,76I (72R,76I-PfCRT^K1); IC50 in line divided by IC50 in drug-sensitive reference strain; cited from earlier work
[7] = system: P. falciparum isolate HON; conditions: HON (PfCRT^3D7); IC50 in line divided by IC50 in drug-sensitive reference strain; cited from earlier work
[8] = system: P. falciparum line 106/1^76I,352R; conditions: 106/1^76I,352R (76I,352R-PfCRT^K1); IC50 in line divided by IC50 in drug-sensitive reference strain; cited from earlier work
[9] = system: P. falciparum line 106/1^76I,369F; conditions: 106/1^76I,369F (76I,369F-PfCRT^K1); IC50 in line divided by IC50 in drug-sensitive reference strain; cited from earlier work
[10] = system: P. falciparum line 106/1^76N; conditions: 106/1^76N (76N-PfCRT^K1); IC50 in line divided by IC50 in drug-sensitive reference strain; cited from earlier work
[11] = system: P. falciparum line 106/1^76T; conditions: 106/1^76T (PfCRT^K1); IC50 in line divided by IC50 in drug-sensitive reference strain; cited from earlier work
[12] = system: P. falciparum Dd2; conditions: Dd2 (PfCRT^Dd2); IC50 in line divided by IC50 in drug-sensitive reference strain; cited from earlier work
[13] = system: P. falciparum 106/1; conditions: 106/1 (76K-PfCRT^K1); IC50 in line divided by IC50 in drug-sensitive reference strain; cited from earlier work
[14] = system: P. falciparum line K1AM; conditions: K1AM (163R,356V-PfCRT^K1); IC50 in line divided by IC50 in drug-sensitive reference strain; cited from earlier work

| Compound | transport activity of 76N-PfCRT^K1 relative to 76N-PfCRT^Dd2 [1] | rate of uptake mediated by PfCRT^K1 relative to PfCRT^Dd2 [2] | Drug susceptibility (In vitro resistance index) [3] | Drug susceptibility (In vitro resistance index) [4] | rate of transport via 76I-PfCRT^K1 relative to 76I-PfCRT^Dd2 [5] | increase in affinity of 76I-PfCRT^K1 (relative to PfCRT^K1) ([5]; quinidine transport) | Drug susceptibility (In vitro resistance index) [6] | Drug susceptibility (In vitro resistance index) [7] | Drug susceptibility (In vitro resistance index) [8] | Drug susceptibility (In vitro resistance index) [9] | Drug susceptibility (In vitro resistance index) [10] | Drug susceptibility (In vitro resistance index) [11] | Drug susceptibility (In vitro resistance index) [12] | Drug susceptibility (In vitro resistance index) [13] | Km ([2]; transport via PfCRT^K1 in oocytes, CQ pH 6.0, quinine and quinidine pH 5.0, 76K-PfCRT^K1 control subtracted, read-out: Apparent Km) | Drug susceptibility (In vitro resistance index) [14] |
| --- | --- | --- | --- | --- | --- | --- | --- | --- | --- | --- | --- | --- | --- | --- | --- | --- |
| C=C[C@H]1C[N@@]2CC[C@H]1C[C@@H]2[C@@H](O)c1ccnc2ccc(OC)cc12 [quinidine] | 3.2 times | 1.2–1.3 times | 1.28 ± 0.07 | 1.72 ± 0.13 | 1.5 times | 3 fold | 0.87 ± 0.06 | 1 | 0.88 ± 0.02 | 0.98 | 1.08 ± 0.08 | 1.95 ± 0.05 | 2.88 ± 0.46 | 1.01 ± 0.01 |  |  |
| C=C[C@H]1C[N@@]2CC[C@H]1C[C@H]2[C@H](O)c1ccnc2ccc(OC)cc12 [quinine] | 3.1 times | 1.2–1.3 times | 0.93 ± 0.25 | 0.11 ± 0.04 | 0.55 times |  | 0.76 ± 0.07 | 1 | 0.99 ± 0.16 | 0.28 | 1.56 ± 0.16 | 1.69 ± 0.19 | 1.82 ± 0.31 | 1.08 ± 0.06 | 28.8 ± 2.7 µM | 0.72 |

Source: PMC4956231, “Molecular Mechanisms for Drug Hypersensitivity Induced by the Malaria Parasite’s Chloroquine Resistance Transporter” (PLoS Pathogens, 2016)
